Results taken from PMC6864136 (Saudi Journal of Biological Sciences, 2018).
Values joined by “and” are separate entries in the source; they are usually repeats but may differ in a detail not shown here. Equal entries are not always repeated.

Amino acid sequences for entries named in this document (tags omitted). Residues count along the entry.
UniProt O42275, 24-633: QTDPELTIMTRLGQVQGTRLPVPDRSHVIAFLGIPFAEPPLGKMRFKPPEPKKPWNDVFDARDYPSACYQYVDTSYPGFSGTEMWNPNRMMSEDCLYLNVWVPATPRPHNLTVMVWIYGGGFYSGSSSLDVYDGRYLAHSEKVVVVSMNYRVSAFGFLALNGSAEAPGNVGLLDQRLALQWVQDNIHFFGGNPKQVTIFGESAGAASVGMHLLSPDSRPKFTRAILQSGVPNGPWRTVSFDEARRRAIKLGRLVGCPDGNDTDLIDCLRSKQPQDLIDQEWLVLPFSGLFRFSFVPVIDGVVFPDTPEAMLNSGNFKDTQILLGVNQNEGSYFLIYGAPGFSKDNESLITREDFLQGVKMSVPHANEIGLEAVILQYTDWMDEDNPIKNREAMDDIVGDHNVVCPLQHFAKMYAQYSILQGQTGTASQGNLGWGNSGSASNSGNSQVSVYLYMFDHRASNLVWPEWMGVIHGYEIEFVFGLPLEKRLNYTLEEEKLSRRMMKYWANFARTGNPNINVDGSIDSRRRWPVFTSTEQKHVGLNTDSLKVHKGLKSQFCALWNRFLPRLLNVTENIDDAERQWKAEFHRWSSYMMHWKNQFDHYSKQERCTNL

Assays:
[1] = biological target: electric-eel AChE (Electrophorus electricus, UniProt O42275); assay: In vitro acetylcholinesterase inhibition; type: biochemical; conditions: pH 7.5, 25 °C, mean n > 3
[2] = system: Artemia salina larvae; assay: Brine shrimp lethality; conditions: A. salina nauplii; 95% confidence limits in parentheses

## Isoeugenol [Compound 8]
[1]
  IC50 (µg/mL) ± SD, AChE inhibition: 29.78 ± 0.26 µg/mL
[2]
  LC50 (µg/mL), toxicity in Artemia salina larvae test: 2033.1–6303.8 µg/mL and 2033.1 (1980.3–2086.0) µg/mL
